Experimental data as given in US20250026765A1, “SPIROHETEROCYCLE DERIVATIVE HAVING SEROTONIN RECEPTOR BINDING ACTIVITY” (Shionogi & Co., Ltd., priority 2021, published 2025).

By UniProt entry, the sequences of proteins in these tests, tags left out. Residues count along the entry.
UniProt P28335, 33-458 limits assumed: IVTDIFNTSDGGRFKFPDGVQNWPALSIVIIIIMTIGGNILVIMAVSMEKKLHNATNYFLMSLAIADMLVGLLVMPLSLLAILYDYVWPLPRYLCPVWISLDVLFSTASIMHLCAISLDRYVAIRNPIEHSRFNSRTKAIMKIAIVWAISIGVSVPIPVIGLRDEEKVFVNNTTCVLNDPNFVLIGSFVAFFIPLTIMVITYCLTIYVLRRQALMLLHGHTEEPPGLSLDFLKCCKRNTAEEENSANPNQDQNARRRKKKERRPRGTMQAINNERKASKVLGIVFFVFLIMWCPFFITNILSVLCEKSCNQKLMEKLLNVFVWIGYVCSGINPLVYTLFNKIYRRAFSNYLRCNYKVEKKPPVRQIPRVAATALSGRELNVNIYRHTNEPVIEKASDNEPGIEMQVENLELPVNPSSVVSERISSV
UniProt P28223, whole entry: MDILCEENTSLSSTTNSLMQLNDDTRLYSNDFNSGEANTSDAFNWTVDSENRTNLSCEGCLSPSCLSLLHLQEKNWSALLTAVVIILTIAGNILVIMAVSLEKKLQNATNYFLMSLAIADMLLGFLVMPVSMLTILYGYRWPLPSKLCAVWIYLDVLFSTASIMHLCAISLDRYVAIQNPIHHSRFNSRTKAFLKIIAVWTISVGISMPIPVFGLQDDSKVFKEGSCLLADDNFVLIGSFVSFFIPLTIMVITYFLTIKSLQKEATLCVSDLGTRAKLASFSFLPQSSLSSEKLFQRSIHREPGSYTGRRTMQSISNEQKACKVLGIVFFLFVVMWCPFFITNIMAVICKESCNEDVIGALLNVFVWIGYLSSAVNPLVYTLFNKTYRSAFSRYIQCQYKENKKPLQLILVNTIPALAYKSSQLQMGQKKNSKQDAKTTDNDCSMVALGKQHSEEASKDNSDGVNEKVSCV

Tests used:
[1] = biological target: human recombinant 5-HT2C receptor (Homo sapiens (Human), UniProt P28335); experiment: 5-HT2C receptor binding inhibition test ([3H]-Mesulergine); settings: read-out: h-5-HT2C Ki, Jump-In HEK cell membrane, 37° C. 2 hours
Procedure: Test Example 2: 5-HT2C Receptor Binding Inhibition Test
(§1) (Each Experimental Condition)
Cell membrane: 0.5 μg of Jump-In HEK cell membrane (expressing human recombinant 5-HT2C receptor) per well
(§2) Assay buffer: Tris-HCl 50 mmol/L (pH 7.4) containing NaCl 120 mmol/L, MgCl2·6H2O 1 mmol/L, KCl 5 mmol/L, 0.1% BSA and CaCl2 2 mmol/L
Radioactive ligand: [^3H]-Mesulergine with a final concentration of around Kd value calculated by the following method
Non-specific ligand: Serotonin HCl with a final concentration of […]
(§3) The Kd value is calculated when the lot of cell membrane is changed. […] The radioactivity of [^3H]-Mesulergine bound to the 5-HT2C receptor is measured using Microbeta2 (PerkinElmer) at a measurement time of 1 min/well. The Saturation curve is drawn from the measured value, and the Kd value is calculated from the slope of the Scatchard Plot. […]
(§4) In advance, 0.5 μL of the compound solution dissolved in DMSO is dispensed into a microplate, and the cell membrane and the hot ligand are diluted with Assay buffer, respectively. […] The radioactivity of [^3H]-Mesulergine bound to the 5-HT2C receptor is measured using Microbeta2 (PerkinElmer) at a measurement time of 1 min/well. […] Finally, the Ki value is calculated from the dose-response curve.
(§5) (The binding activity of the compound according to the present invention is calculated from the following binding inhibition rate (%).) […]

[2] = biological target: human recombinant 5-HT2A receptor (Homo sapiens (Human), UniProt P28223); experiment: 5-HT2A receptor binding inhibition test ([3H]-Ketanserin); settings: read-out: h-5-HT2A Ki, Jump-In HEK cell membrane, 25° C. 1.5 hours
Procedure: Test Example 1: 5-HT2A Receptor Binding Inhibition Test
as §1
Cell membrane: 15 μg of Jump-In HEK cell membrane (expressing human recombinant 5-HT2A receptor) per well
as §2
Radioactive ligand: [^3H]-Ketanserin with a final concentration of around Kd value calculated by the following method
Non-specific ligand: Serotonin HCl with a final concentration of 500 μmol/L
as §3, with “[^3H]-Ketanserin” for “[^3H]-Mesulergine”, “5-HT2A” for “5-HT2C”
as §4, with “[^3H]-Ketanserin” for “[^3H]-Mesulergine”, “5-HT2A” for “5-HT2C”
as §5

Question: How did the Ki [1] turn out when `Cc1nc(CN(Cc2nc3cc(Br)ccc3o2)C2=NOC3(CCN(C)CC3)N2)co1` was run?
Answer: < 10 nM

Question: And the Ki [2]?
Answer: < 10 nM
